This assay addresses T1, p38 γ (Homo sapiens, UniProt P53778).
T1 sequence (P53778 1-367): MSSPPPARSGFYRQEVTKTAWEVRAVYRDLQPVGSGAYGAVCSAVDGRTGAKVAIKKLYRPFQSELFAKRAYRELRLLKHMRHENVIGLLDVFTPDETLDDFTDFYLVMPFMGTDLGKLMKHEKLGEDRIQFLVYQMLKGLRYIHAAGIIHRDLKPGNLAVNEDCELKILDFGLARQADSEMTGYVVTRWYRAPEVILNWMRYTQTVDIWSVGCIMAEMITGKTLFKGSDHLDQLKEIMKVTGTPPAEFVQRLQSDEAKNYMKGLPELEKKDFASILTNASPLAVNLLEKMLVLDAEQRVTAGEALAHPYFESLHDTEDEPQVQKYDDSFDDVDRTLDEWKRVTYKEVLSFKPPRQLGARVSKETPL
In words: ADP-Glo in vitro kinase assay, p38γ. Also on record: human recombinant p38 α, β, γ or δ protein (active full-length); purchased SignalChem; host or cells: baculovirus in Sf9 insect cells. It counts as biochemical.

Broadly, the pIC50 is −log10 of the IC50, conventionally taken in molar units. In general, pKi refers to −log10 of the Ki, conventionally taken in molar units.

pIC50, pKi: −log10 of the molar value.

Regarding `Cc1ccc([N+](=O)[O-])cc1S(=O)(=O)N(C)/N=C/c1cnc2ccc(Br)cn12` [Compound 1], the negative logarithm of the IC50 (pIC50) is, setting by setting: (IC50 p38γ kinase activity, ADP-Glo) 7.54 to 8.39; (IC50 value, 10 μM ATP) 7.55; (IC50 value, 100 μM ATP) 7.00; (IC50 value, 250 μM ATP) 6.47. The pKi reads like this: (Ki, Ki=IC50/(S/KM+1)) around 7.72; (estimated Ki for inhibiting p38γ enzymatic activity, based on IC50 and enzyme concentration used) 8.00.

These data come from patent US20230190717A1, “P38 GAMMA INHIBITORS AND METHOD OF USE THEREOF” (City of Hope, priority 2017, published 2023).
